# Measured values as given in patent US12528837B2, “Aryl substituted polymyxin derivatives” (priority 2018, dated 2026).
# Like-named read-outs stand apart in the source and are kept apart here.
# Experiments:
# Assay type in all cases: cell-based
# E. coli ATCC 25922 = system: E. coli ATCC 25922
# Method: (§1) The inoculum was prepared by making a direct suspension of isolated colonies (selected from an 18-24 hour Mueller-Hinton agar plate) adjusted to the 0.5 McFarland standard. […] The assays were performed in duplicate. […] Several of the compounds were subjected to multiple tests, and where this is the case, the MIC presented is the median value obtained. The MIC values are quoted in μg/mL.
# K. pneumoniae ATCC 13822 = system: K. pneumoniae ATCC 13822
# Method: as §1
# [1] = system: A. baumannii ATCC BAA-747
# Method: as §1
# A. baumannii NCTC 13424 = system: A. baumannii NCTC 13424
# Method: as §1
# P. aeruginosa ATCC 27853 = system: P. aeruginosa ATCC 27853
# Method: as §1
# [2] = cation-adjusted Mueller-Hinton Broth, 18-20 h, 35° C.
MIC E. coli ATCC 25922 (E. coli ATCC 25922; ATCC 25922),Structure (SMILES),"MIC A. baumannii ATCC BAA-747 [1, 2]",MIC A. baumannii NCTC 13424 (A. baumannii NCTC 13424; [2]),further results
0.125 µg/mL,"CC(C)C[C@@H]1NC(=O)[C@@H](Cc2ccccc2)NC(=O)[C@H](CCN)NC(=O)[C@@H](NC(=O)[C@H](CN)NC(=O)[C@@H](NC(=O)C[C@H](CN)c2ccc(Cl)cc2)[C@@H](C)O)CCNC(=O)[C@H]([C@@H](C)O)NC(=O)[C@H](CCN)NC(=O)[C@H](CCN)NC1=O [Example 1, (S)-4-amino-3-(4- chlorophenyl) butanoyl- Thr- Dap-Cyclo[Dab- Dab-DPhe-Leu-Dab- Dab-Thr]]",,,MIC K. pneumoniae ATCC 13822 (K. pneumoniae ATCC 13822; ATCC 13822): 0.125 µg/mL
,"CC(C)C[C@@H]1NC(=O)[C@@H](CC(C)C)NC(=O)[C@H](CCN)NC(=O)[C@@H](NC(=O)[C@H](CN)NC(=O)[C@@H](NC(=O)C[C@H](CN)Cc2ccccc2)[C@@H](C)O)CCNC(=O)[C@H]([C@@H](C)O)NC(=O)[C@H](CCN)NC(=O)[C@H](CCN)NC1=O [Example 7, (R)-4-amino-3- benzylbutanoyl -Thr- Dap-Cyclo[Dab-Dab- DLeu-Leu-Dab-Dab- Thr]. Isomer 1]",0.125 µg/mL,0.125 µg/mL,MIC P. aeruginosa ATCC 27853 (P. aeruginosa ATCC 27853; [2]): 0.125 µg/mL
,"CC(C)C[C@@H]1NC(=O)[C@@H](CC(C)C)NC(=O)[C@H](CCN)NC(=O)[C@@H](NC(=O)[C@H](CN)NC(=O)[C@@H](NC(=O)C[C@@H](CN)Cc2ccccc2)[C@@H](C)O)CCNC(=O)[C@H]([C@@H](C)O)NC(=O)[C@H](CCN)NC(=O)[C@H](CCN)NC1=O [Example 8, (S)-4-amino-3- benzylbutanoyl-Thr- Dap-Cyclo[Dab-Dab- DLeu-Leu-Dab-Dab- Thr], Isomer 2]",0.125 µg/mL,,MIC E. coli ATCC 25922 (E. coli ATCC 25922; [2]): 0.125 µg/mL
,"CC(C)C[C@@H]1NC(=O)[C@@H](Cc2ccccc2)NC(=O)[C@H](CCN)NC(=O)[C@@H](NC(=O)[C@H](CN)NC(=O)[C@@H](NC(=O)C[C@H](CN)Cc2ccccc2)[C@@H](C)O)CCNC(=O)[C@H]([C@@H](C)O)NC(=O)[C@H](CCN)NC(=O)[C@H](CCN)NC1=O [Example 9, (R)-4-amino-3- benzylbutanoyl-Thr- Dap-Cyclo[Dab-Dab- DPhe-Leu-Dab-Dab- Thr). Isomer 1]",,0.125 µg/mL,MIC P. aeruginosa ATCC 27853 (P. aeruginosa ATCC 27853; [2]): 0.125 µg/mL
,"CC(C)C[C@@H]1NC(=O)[C@@H](Cc2ccccc2)NC(=O)[C@H](CCN)NC(=O)[C@@H](NC(=O)[C@H](CN)NC(=O)[C@@H](NC(=O)C[C@@H](CN)Cc2ccccc2)[C@@H](C)O)CCNC(=O)[C@H]([C@@H](C)O)NC(=O)[C@H](CCN)NC(=O)[C@H](CCN)NC1=O [Example 10, (S)-4-amino-3- benzylbutanoyl-Thr- Dap-Cyclo[Dab-Dab- DPhe-Leu-Dab-Dab- Thr]. Isomer 2]",,,MIC E. coli ATCC 25922 (E. coli ATCC 25922; [2]): 0.125 µg/mL; MIC P. aeruginosa ATCC 27853 (P. aeruginosa ATCC 27853; [2]): 0.125 µg/mL
,"CC(C)C[C@@H]1NC(=O)[C@@H](Cc2ccccc2)NC(=O)[C@H](CCN)NC(=O)[C@@H](NC(=O)[C@H](CN)NC(=O)[C@@H](NC(=O)C[C@@H](CN)Cc2cccc(Cl)c2)[C@@H](C)O)CCNC(=O)[C@H]([C@@H](C)O)NC(=O)[C@H](CCN)NC(=O)[C@H](CCN)NC1=O [Example 12, (S)-4-amino-3-(3- chlorobenzyl)butanoyl- Thr-Dap-Cyclo[Dab- Dab-DPhe-Leu-Dab- Dab-Thr]. Isomer 2]",,,MIC P. aeruginosa ATCC 27853 (P. aeruginosa ATCC 27853; ATCC 27853): 0.125 µg/mL
0.125 µg/mL,"CC(C)C[C@@H]1NC(=O)[C@@H](CC(C)C)NC(=O)[C@H](CCN)NC(=O)[C@@H](NC(=O)[C@H](CN)NC(=O)[C@@H](NC(=O)C[C@H](CN)c2cccc(C(C)C)c2)[C@@H](C)O)CCNC(=O)[C@H]([C@@H](C)O)NC(=O)[C@H](CCN)NC(=O)[C@H](CCN)NC1=O [Example 15, (S)-4-amino-3-(3- isopropylphenyl) butanoyl-Thr-Dap- Cyclo[Dab-Dab-DLeu- Leu-Dab-Dab-Thr]]",,,MIC K. pneumoniae ATCC 13822 (K. pneumoniae ATCC 13822; ATCC 13822): 0.125 µg/mL
,CC[C@@H]1NC(=O)[C@@H](Cc2ccccc2)NC(=O)[C@H](CCN)NC(=O)[C@@H](NC(=O)[C@H](CN)NC(=O)[C@@H](NC(=O)C[C@@H](CN)c2cccc(C(C)C)c2)[C@@H](C)O)CCNC(=O)[C@H]([C@@H](C)O)NC(=O)[C@H](CCN)NC(=O)[C@H](CCN)NC1=O [Example 18],0.125 µg/mL,0.125 µg/mL,
0.125 µg/mL,"Cc1cccc([C@@H](CN)CC(=O)N[C@H](C(=O)N[C@@H](CN)C(=O)N[C@H]2CCNC(=O)[C@H]([C@@H](C)O)NC(=O)[C@H](CCN)NC(=O)[C@H](CCN)NC(=O)[C@H](CC(C)C)NC(=O)[C@@H](Cc3ccccc3)NC(=O)[C@H](CCN)NC2=O)[C@@H](C)O)c1 [Example 21, (S)-4-amino-3-(m- tolyl)butanoyl-Thr- Dap-Cyclo[Dab-Dab- DPhe-Leu-Dab-Dab- Thr]]",,,MIC A. baumannii ATCC BAA-747 ([1]; ATCC BAA-747): 0.125 µg/mL; MIC A. baumannii NCTC 13424 (A. baumannii NCTC 13424; NCTC 13424): 0.125 µg/mL
,CC[C@@H]1NC(=O)[C@@H](CC(C)C)NC(=O)[C@H](CCN)NC(=O)[C@@H](NC(=O)[C@H](CN)NC(=O)[C@@H](NC(=O)C[C@H](CN)c2cccc(Cl)c2)[C@@H](C)O)CCNC(=O)[C@H]([C@@H](C)O)NC(=O)[C@H](CCN)NC(=O)[C@H](CCN)NC1=O [Example 23],,0.125 µg/mL,MIC E. coli ATCC 25922 (E. coli ATCC 25922; [2]): 0.125 µg/mL; MIC K. pneumoniae ATCC 13822 (K. pneumoniae ATCC 13822; [2]): 0.125 µg/mL
0.125 µg/mL,"CC[C@@H]1NC(=O)[C@@H](CC(C)C)NC(=O)[C@H](CCN)NC(=O)[C@@H](NC(=O)[C@H](CN)NC(=O)[C@@H](NC(=O)C[C@H](CN)c2cccc(-c3ccccc3)c2)[C@@H](C)O)CCNC(=O)[C@H]([C@@H](C)O)NC(=O)[C@H](CCN)NC(=O)[C@H](CCN)NC1=O [Example 24, (S)-3-(1,1′-biphenyl- 3-yl)-4-aminobutanoyl-Thr- Dap-Cyclo[Dab-Dab- DLeu-Abu-Dab-Dab- Thr]]",,,MIC P. aeruginosa ATCC 27853 (P. aeruginosa ATCC 27853; ATCC 27853): 0.125 µg/mL
,CC[C@@H]1NC(=O)[C@@H](CC(C)C)NC(=O)[C@H](CCN)NC(=O)[C@@H](NC(=O)[C@H](CN)NC(=O)[C@@H](NC(=O)C[C@@H](CN)c2cccc(-c3ccccc3)c2)[C@@H](C)O)CCNC(=O)[C@H]([C@@H](C)O)NC(=O)[C@H](CCN)NC(=O)[C@H](CCN)NC1=O [Example 25],0.125 µg/mL,0.125 µg/mL,
,"CC[C@@H]1NC(=O)[C@@H](CC(C)C)NC(=O)[C@H](CCN)NC(=O)[C@@H](NC(=O)[C@H](CN)NC(=O)[C@@H](NC(=O)C[C@@H](CN)c2cccc(CC(C)C)c2)[C@@H](C)O)CCNC(=O)[C@H]([C@@H](C)O)NC(=O)[C@H](CCN)NC(=O)[C@H](CCN)NC1=O [Example 27, (R)-4-amino-3-(3- isobutylphenyl)butanoyl- Thr- Dap- Cyclo[Dab-Dab-DLeu- Abu-Dab-Dab-Thr]]",,,MIC A. baumannii ATCC BAA-747 ([1]; ATCC BAA-747): 0.125 µg/mL; MIC A. baumannii NCTC 13424 (A. baumannii NCTC 13424; NCTC 13424): 0.125 µg/mL
,"CCCC[C@H]1NC(=O)[C@H](CCN)NC(=O)[C@@H](NC(=O)[C@H](CN)NC(=O)[C@@H](NC(=O)C[C@@H](CN)c2cc(Cl)cc(Cl)c2)[C@@H](C)O)CCNC(=O)[C@H]([C@@H](C)O)NC(=O)[C@H](CCN)NC(=O)[C@H](CCN)NC(=O)[C@H](CC)NC1=O [Example 29, (R)-4-amino-3-(3,5- dichlorophenyl)butanoyl- Thr-Dap- Cyclo[Dab-Dab- DnorLeu-Abu-Dab- Dab-Thr]]",0.125 µg/mL,0.125 µg/mL,
0.125 µg/mL,"CC[C@@H]1NC(=O)[C@@H](CC(C)C)NC(=O)[C@H](CCN)NC(=O)[C@@H](NC(=O)[C@H](CN)NC(=O)[C@@H](NC(=O)C[C@H](CN)c2cccc(-c3ccsc3)c2)[C@@H](C)O)CCNC(=O)[C@H]([C@@H](C)O)NC(=O)[C@H](CCN)NC(=O)[C@H](CCN)NC1=O [Example 30, (S)-4-amino-3-(3- (thiophen-3-yl)phenyl)butanoyl- Thr-Dap-Cyclo[Dab- Dab-DLeu-Abu-Dab- Dab-Thr]]",,,MIC K. pneumoniae ATCC 13822 (K. pneumoniae ATCC 13822; ATCC 13822): 0.125 µg/mL
0.125 µg/mL,"CC[C@@H]1NC(=O)[C@@H](CC(C)C)NC(=O)[C@H](CCN)NC(=O)[C@@H](NC(=O)[C@H](CN)NC(=O)[C@@H](NC(=O)C[C@@H](CN)c2cccc(-c3ccsc3)c2)[C@@H](C)O)CCNC(=O)[C@H]([C@@H](C)O)NC(=O)[C@H](CCN)NC(=O)[C@H](CCN)NC1=O [Example 31, (R)-4-amino-3-(3- (thiophen-3-yl)phenyl)butanoyl- Thr-Dap-Cyclo[Dab- Dab-DLeu-Abu-Dab- Dab-Thr]]",,,MIC A. baumannii NCTC 13424 (A. baumannii NCTC 13424; NCTC 13424): 0.125 µg/mL
,"CC[C@@H]1NC(=O)[C@@H](CC(C)C)NC(=O)[C@H](CCN)NC(=O)[C@@H](NC(=O)[C@H](CN)NC(=O)[C@@H](NC(=O)C[C@H](CN)c2cccc(Br)c2)[C@@H](C)O)CCNC(=O)[C@H]([C@@H](C)O)NC(=O)[C@H](CCN)NC(=O)[C@H](CCN)NC1=O [Example 32, (S)-4-amino-3-(3- bromophenyl)butanoyl- Thr-Dap-Cyclo[Dab- Dab-DLeu-Abu-Dab- Dab-Thr]]",0.125 µg/mL,0.125 µg/mL,

Structure (SMILES),MIC E. coli ATCC 25922 (E. coli ATCC 25922; ATCC 25922),"MIC A. baumannii ATCC BAA-747 [1, 2]",MIC A. baumannii NCTC 13424 (A. baumannii NCTC 13424; [2]),further results
"CCCC[C@H]1NC(=O)[C@H](CCN)NC(=O)[C@@H](NC(=O)[C@H](CN)NC(=O)[C@@H](NC(=O)C[C@H](CN)c2cc(Cl)cc(Cl)c2)[C@@H](C)O)CCNC(=O)[C@H]([C@@H](C)O)NC(=O)[C@H](CCN)NC(=O)[C@H](CCN)NC(=O)[C@H](CC)NC1=O [Example 28, (S)-4-amino-3-(3,5- dichlorophenyl)butanoyl- Thr-Dap- Cyclo[Dab-Dab- DnorLeu-Abu-Dab- Dab-Thr]]",0.125 µg/mL,0.125 µg/mL,,MIC K. pneumoniae ATCC 13822 (K. pneumoniae ATCC 13822; ATCC 13822): 0.125 µg/mL
